# PI4K2A inh = inhibitors of human PI4K2A; activity change, negative = inhibition, % at 76.9 µM; Q9BTU6; 420,000 compounds, 0.13% hits; purified PI4K2A, ADP-Glo luminescence, 1 h; hits give low values; in the data active means activity change below about -50%; inconclusive means mostly about -30% to -49%
#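 PI4K2A activity was measured by ADP-Glo luminescence: enzyme (4 ug/mL stock) and phosphatidylinositol (1.2 mM stock) in Tris pH 7.5/MgCl2/EGTA/Triton X-100 buffer were reacted with ATP (300 microM stock) for one hour at ambient temperature.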
# Nrf2 block = Nrf2 pathway inhibition; A549 ARE-Fluc reporter, luciferase luminescence, 18-24 h; Potency, µM (highest dose often 46 µM), hits mostly inhibitors; 360,000 compounds, 2.1% hits; AID 504444; further: nearly all actives have a fitted effect of over 60% in size
#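 Reporter: ARE-Fluc in A549. Exposure: 18-24 h, 37 °C, 5% CO2, 5% FBS OPTI-MEM. Readouts: fluorescent cytotoxicity (CellTiter-Fluor), then luminescent Nrf2 signal after BugLite.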
# Nrf2 ARE act = activators of Nrf2 (ARE) signaling. Potency, µM (titrated, usually from 46.1 µM), hits mostly activators. AID 624171. AREc32 ARE-luciferase reporter (MCF7-derived line), luminescence, 24 h. 410,000 compounds, 0.31% hits; further: nearly all actives have a fitted effect of over 65% in size
#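 Each well held 1000 AREc32 cells, which were incubated with compound for 24 hr at 37 deg C after overnight attachment, and ARE reporter activity was quantified by firefly luciferase luminescence.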
# GALK inh = blocks human galactokinase activity. P51570. Purified GALK, Kinase-Glo residual ATP luminescence. Potency, µM (top dose mostly 57.5 µM), hits mostly inhibitors. 270,000 compounds, 0.007% hits
#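 Compounds were pin-transferred into ATP buffer (35 uM final), then GALK plus galactose (5 nM, 100 uM final) was added. After 1 h at room temperature, Kinase-Glo Plus was added and luminescence read after 10 min.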
# miR-21 reporter = miR-21 reporter, rising signal | 340,000 tested, under 10 active | AID 2288 | HeLa miR-21 FLuc reporter, luciferase, 48 h | Potency, µM (titrated, usually from 38.3 µM); active = well fitted rising curve with a large enough effect; inconclusive = small, poorly fitted or top-dose-only effect; inactive = no such curve, though single readings can be large or run the other way;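 further: miR-21 action dims this reporter so a rising signal means less miR-21 action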
#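 Using DMEM plus 10% FBS, HeLa miR-21-FLuc cells are incubated with test compounds (final up to about 40uM) for 48 hours; firefly luciferase signal is then imaged following reagent-mediated lysis.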
# A549 viability = A549 cytotoxicity, counter-screen for Nrf2 inhibitors | A549 ARE-Fluc cells, CellTiter-Fluor viability, 18-24 h | Potency, µM (titrated, usually from 46 µM), actives largely listed as inhibitors | 390,000 compounds, 0.16% hits
#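 Cytotoxicity counterscreen: CellTiter-Fluor fluorescence was measured in A549 ARE_Fluc cells after 18-24 h of compound exposure in a concentration series. The subsequent BugLite luminescent read reports ARE-luciferase activity.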
# A number is an active result; i = inactive; ? = inconclusive; nt = no result; [ ] = remark or other dose. Most compounds without a hit are left out; they make up all but 2.2% or so of the library. Unless noted, the call rests on the fitted dose curve; in most records, active means well fitted curve in the direction sought with a large enough effect; inconclusive means small, poorly fitted or top-dose-only effect, or another doubt; inactive means no such curve, though single readings can be large; an effect the other way counts as inactive or inconclusive.
SMILES,PI4K2A inh,Nrf2 block,Nrf2 ARE act,GALK inh,miR-21 reporter,A549 viability
COC(=O)[C@H]1C[C@@]2(N3CCCC3)c3ccccc3N[C@H]2N1S(C)(=O)=O,i,nt,nt,nt,nt,nt
Cc1ccc(NC(=S)Nc2ccc(C(C)C)cc2)cc1S(=O)(=O)N1CCCCCC1,i,11.6µM,i,i,i,?
CCCCC(=O)Nc1ccc(C)c(S(=O)(=O)N2CCCCCC2)c1,i,16.4µM,i,nt,nt,?
Cc1ccc(NC(=O)CCS(=O)(=O)c2ccccc2)cc1S(=O)(=O)N1CCCCCC1,i,?,i,nt,nt,i
COc1ccc(NC(=S)Nc2ccc(C)c(S(=O)(=O)N3CCCCC3)c2)cc1,nt,nt,nt,i,i,nt
COc1ccccc1-c1cc(C(F)(F)F)nc(S(=O)(=O)CCCC(=O)O)n1,i,nt,11.2µM,i,i,i
COc1ccccc1-c1cc(C(F)(F)F)nc(S(=O)(=O)CCCC(=O)Nc2cc(OC)c(OC)c(OC)c2)n1,i,i[9.27 µM],i,nt,?,i
CC1CCN(S(=O)(=O)c2ccc(NC(=O)Cc3ccc(S(=O)(=O)N4CCOCC4)s3)cc2)CC1,i,?,i,nt,nt,i
O=C(CSC1=NCCS1)Nc1ccc(S(=O)(=O)N2CCCCCC2)cc1,i,14.6µM,i,i,i,i
O=C(Cc1ccc(S(=O)(=O)N2CCOCC2)s1)Nc1ccc(S(=O)(=O)N2CCCCC2)cc1,i,20.6µM,i,nt,nt,i
O=C(CSC1=NCCS1)Nc1ccc(S(=O)(=O)NC2CCCCC2)cc1,i,i,i,i,i,i
O=C1N[C@@H](Cc2c[nH]c3ccccc23)COC(=O)[C@H](Cc2ccc(F)cc2)C/C=C\C[C@H]1CC(=O)N(CCO)Cc1ccccc1,i,25.9µM,i,nt,nt,?
O=C1NC[C@@H](c2ccccc2)OC(=O)[C@H](Cc2ccc(F)cc2)C/C=C\C[C@@H]1CC(=O)N(CCO)Cc1ccccc1,i,25.9µM,i,nt,nt,?
O=C1N[C@@H](Cc2ccccc2)COC(=O)[C@H](Cc2ccc(F)cc2)CC/C=C/C[C@H]1CC(=O)N(CCO)Cc1ccccc1,i,23.1µM,i,nt,nt,i
COc1ccc(CNCC#Cc2ccccc2)c(OC)c1,i,nt,nt,nt,nt,nt
Clc1cccc(Cl)c1/C=N\Nc1nccs1,i,i,10µM,i,i,i
O=C(CCc1ccccc1)N[C@H]1[C@@H](OC(=O)c2cccnc2)CCC[C@]12C(=O)N(Cc1ccccc1)c1ccccc12,i,nt,nt,nt,nt,nt
CC(=O)NCCNc1nc2cc(-c3ccccc3)sc2c(=O)n1C,i,nt,i,nt,nt,nt
COc1ncccc1-c1cc2nc(NCCNC(C)=O)n(C)c(=O)c2s1,i,nt,3.55µM,nt,nt,nt
Cc1cc(C)c(NC(=O)Cn2c(=O)n(Cc3ccc(C(=O)NCc4ccc5c(c4)OCO5)cc3)c(=O)c3ccccc32)c(C)c1,i,14.6µM,i,nt,i,i
COc1ccc(-c2noc(N3CCN(c4ccc(Cl)cc4)CC3)n2)cc1OC,i,?,i,nt,i,i
COc1ccc(-c2noc(N3CCN(c4cccc(Cl)c4)CC3)n2)cc1OC,i,23.1µM,i,nt,i,i
O=C(C1=C[C@H](C2CCCCC2)C[C@H](OCc2ccc(CO)cc2)O1)N1CCN(Cc2ccc3c(c2)OCO3)CC1,i,23.1µM,i,i,i,?
O=C(C1=C[C@@H](c2csc3ccccc23)C[C@@H](OCc2ccc(CO)cc2)O1)N1CCN(Cc2ccc3c(c2)OCO3)CC1,i,?,i,i,?,i
O=C(C1=C[C@@H](c2csc3ccccc23)C[C@@H](OCc2ccc(CO)cc2)O1)N1CCN(Cc2ccccc2)CC1,i,16.4µM,i,i,i,i
SMILES,PI4K2A inh,Nrf2 block,Nrf2 ARE act,GALK inh,miR-21 reporter,A549 viability
O=C(C1=C[C@@H](C2CCCCC2)C[C@@H](OCc2ccc(CO)cc2)O1)N1CCN(Cc2ccc3c(c2)OCO3)CC1,i,?,i,i,i,i
CC(C)(C)c1ccc(S(=O)(=O)N2CCCC(C(=O)NCc3ccco3)C2)cc1 (stereo unspecified),i,nt,nt,nt,nt,nt
CCN1CCN(c2c(S(=O)(=O)c3ccc(OC)cc3)cnc3cc(OC)c(OC)cc23)CC1,i,i,i,nt,i,i
COc1cc2ncc(S(=O)(=O)c3ccccc3)c(N3CCCC(C)C3)c2cc1OC (stereo unspecified),i,23.1µM,i,nt,i,?
O=[N+]([O-])c1ccc(O)c(/C=N/Nc2ccc(Cl)nn2)c1,i,3.66µM,i,i,i,?
CC(Oc1ccc(Br)cc1Cl)C(=O)Nc1ccncc1 (stereo unspecified),i,20.6µM,i,i,i,i
CC(Oc1ccc(Cl)cc1Cl)C(=O)Nc1ccc(O)cc1 (stereo unspecified),i,i,i,i,i,i
Cc1cccc(-c2nnn3c2nc(NCc2ccc4c(c2)OCO4)c2ccccc23)c1,-52.9,i,i,nt,i,i
Clc1ccc(-c2nnn3c2nc(NCc2ccc4c(c2)OCO4)c2ccccc23)cc1,i,i,i,nt,i,i
CN(C)[C@@H]1CCN(c2cccc3c2S(=O)(=O)N2CC[C@@H](C2)O3)C1,i,nt,nt,nt,nt,nt
Cc1cc(C)cc(OCC(=O)N2N=C(c3cccnc3)CC2(O)C(F)(F)F)c1 (stereo unspecified),i,23.1µM,i[9.22 µM],nt,i,i
COc1ccc(-c2oc3ncn(CCN4CCOCC4)c(=N)c3c2-c2ccc(OC)cc2)cc1,i,16.4µM,i,i,i,i
O=C(CSCc1cccc(Br)c1)N=Nc1c(O)[nH]c2ccccc12,i,i,i,i,i,i
O=Nc1c(-c2c(O)[nH]c3cc(Br)ccc23)[nH]c2ccccc12,i,10.3µM,i,nt,i,20.6µM
O=C1OC2(c3ccccc31)c1cc(Br)c(O)c(Br)c1Oc1c2cc(Br)c(O)c1Br,i,nt,nt,nt,nt,nt
CN(C)c1cccc(S(=O)(=O)N2CCCN(S(=O)(=O)c3ccc4c(c3)OCCO4)CC2)c1,nt,i,nt,nt,nt,i
CC1(C)CC(=O)c2sc(NC(=O)c3cccs3)nc2C1,i,14.6µM,i,i,i,i
CCc1c(C)nc2ncnn2c1N1CCCC(C(=O)NCc2ccc3c(c2)OCO3)C1 (stereo unspecified),i,10.3µM,i,i,i,i
CCc1c(C)nc2ncnn2c1N1CCCC(C(=O)Nc2ccc(NC(C)=O)cc2)C1 (stereo unspecified),i,i,i,i,i,i
O=C(c1cc2ccccc2o1)c1cccs1,i,?,22.4µM,i,i,i
O=C(NC(=S)Nc1ccc(NC(=O)c2cccs2)cc1)c1cc2ccccc2o1,i,?,i,i,i,i
COc1ccccc1-c1nnc(NC(=O)CCS(=O)(=O)c2ccccc2)o1,i,i,?,i,i,i
COc1ccccc1-c1nnc(NC(=O)CCS(=O)(=O)c2ccc(F)cc2)o1,i,nt,22.4µM,nt,nt,nt
